# Measurements: patent US9844554B2 (Neurogastrx, Inc., priority 2014, dated 2017)
# By UniProt entry, the sequences of proteins in these tests, tags left out. Where a name states a change or a piece, a line headed by the entry shows the natural chain unless it says otherwise.
# UniProt Q12809: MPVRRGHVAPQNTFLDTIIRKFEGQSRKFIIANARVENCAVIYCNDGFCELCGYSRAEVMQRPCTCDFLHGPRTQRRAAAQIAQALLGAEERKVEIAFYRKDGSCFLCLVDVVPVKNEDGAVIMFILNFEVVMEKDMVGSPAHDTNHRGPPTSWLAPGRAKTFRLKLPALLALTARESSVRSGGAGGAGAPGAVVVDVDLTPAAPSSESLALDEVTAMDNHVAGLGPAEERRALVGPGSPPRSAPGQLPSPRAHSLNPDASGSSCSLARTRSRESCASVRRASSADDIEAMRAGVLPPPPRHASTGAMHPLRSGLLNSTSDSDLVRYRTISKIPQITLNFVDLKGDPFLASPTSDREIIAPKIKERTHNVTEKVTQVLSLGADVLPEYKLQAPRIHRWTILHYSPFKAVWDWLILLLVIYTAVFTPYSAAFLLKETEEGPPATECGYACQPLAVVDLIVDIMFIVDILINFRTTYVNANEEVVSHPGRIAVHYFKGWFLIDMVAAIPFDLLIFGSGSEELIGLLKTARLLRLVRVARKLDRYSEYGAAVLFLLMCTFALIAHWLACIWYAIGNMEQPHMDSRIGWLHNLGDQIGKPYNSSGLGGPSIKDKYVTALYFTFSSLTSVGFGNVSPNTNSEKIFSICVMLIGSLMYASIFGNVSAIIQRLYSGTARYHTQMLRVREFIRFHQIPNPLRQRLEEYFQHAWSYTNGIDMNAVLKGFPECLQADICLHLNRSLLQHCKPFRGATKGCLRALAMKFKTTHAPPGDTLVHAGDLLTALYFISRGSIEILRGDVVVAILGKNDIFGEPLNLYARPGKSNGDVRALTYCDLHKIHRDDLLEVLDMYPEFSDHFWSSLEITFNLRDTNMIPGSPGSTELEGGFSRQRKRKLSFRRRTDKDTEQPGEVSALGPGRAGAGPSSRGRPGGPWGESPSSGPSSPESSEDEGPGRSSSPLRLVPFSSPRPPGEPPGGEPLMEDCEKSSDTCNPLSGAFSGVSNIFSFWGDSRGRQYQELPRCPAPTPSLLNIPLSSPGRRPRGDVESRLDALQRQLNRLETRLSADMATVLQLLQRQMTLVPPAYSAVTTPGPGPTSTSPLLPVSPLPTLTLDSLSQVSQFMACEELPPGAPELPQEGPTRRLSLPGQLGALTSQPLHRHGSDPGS
# Biological target: hERG channel (Homo sapiens, UniProt Q12809)
# Experiment: hERG voltage clamp assay in hERG-expressing cultured cells
# Assay type: cell-based
# Details: relative to domperidone
compound,measurement,value
"CS(=O)(=O)c1ccc2c(c1)N(CCCN1CCC(C(=O)O)CC1)c1ccccc1S2 [Metopimazine-Acid, metopimazine acid]",fold less potent than domperidone to inhibit hERG channels,> 100 fold
